How the values were obtained:
[1] = tested on: neutrophilic granulocytes, lymphocytes and macrophages; assay: Preliminary rapid test: immunostimulant effect; type: in vivo, CFLP male mice; details: oral, one-tenth of LD50; 24 hours
[2] = tested on: Lewis long tumor; assay: Lewis long tumor, lung metastases; details: mouse, in vivo
[3] = tested on: NK-ly-ascites lymphoma; assay: NK-ly-ascites lymphoma in vivo; parameters: species or system CFLP male mice; details: concentration below one-tenth of the LD50 value
[4] = 24 hours' acute toxicity; details: p.o.

## N=C(N)NC(=N)SCCBr
[1]
  Immunostimulant effect: weak
[2]
  Effective dose in Lewis long tumor relative to LD50: effective in a dose lower than one-tenth of the LD50 value
[3]
  Activity against NK-ly-ascites tumor: active agains Nk-ly-ascites tumor in a concentration below one-tenth of the LD50 value
[4]
  LD50: 1050 ± 280 mg/kg

Source: patent US4710578A, “Isothiuronium salts” (Peremartoni Vegyipari Vallalat, priority 1984, dated 1987)
